Earlier results on one substance are cited in patent US20220168203A1, “METHOD FOR PREPARING HAIR TREATMENTS AGENTS WITH ORGANIC C1-C6 ALKOXY-SILANES” (Henkel AG & Co. KGaA, priority 2019, published 2022).

The conditions of this data set: 25° C.

Turning to “3,4,5,6-tetrachloro-2-(1,4,5,8-tetrabromo-6-hydroxy-3-oxoxanthen-9-yl)benzoic acid [Acid Red 92]”, the solubility in water entry is “greater than 10 g/L”.
